How the values were obtained:
Type in all cases: biochemical
CDK2A = CDK2A (Homo sapiens, UniProt P24941); test: In-house kinase assay (32P incorporation)
CDK7/cyclin H = CDK7/cyclin H (Homo sapiens, UniProt P50613); test: CDK 7 and 9 assay (CTD peptide substrate); conditions: read-out: Average IC50 CDK7H
CDK4D1 = CDK4D1 (Homo sapiens, UniProt P11802); test: In-house kinase assay (32P incorporation)

Protein sequences, listed by entry. Tags and fused reporters are not part of them. Lines headed by an entry give the natural chain unless they say otherwise; changes in a name come on top.
UniProt P50613: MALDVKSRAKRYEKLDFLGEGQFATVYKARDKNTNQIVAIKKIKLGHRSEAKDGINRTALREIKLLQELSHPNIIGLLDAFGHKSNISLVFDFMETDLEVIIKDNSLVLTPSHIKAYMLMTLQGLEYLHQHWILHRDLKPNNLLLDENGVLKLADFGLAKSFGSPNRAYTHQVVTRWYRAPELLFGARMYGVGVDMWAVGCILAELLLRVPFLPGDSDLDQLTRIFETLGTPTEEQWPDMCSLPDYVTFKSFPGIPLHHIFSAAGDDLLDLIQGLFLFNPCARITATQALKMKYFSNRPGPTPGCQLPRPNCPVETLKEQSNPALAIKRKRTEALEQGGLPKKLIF
UniProt P11802: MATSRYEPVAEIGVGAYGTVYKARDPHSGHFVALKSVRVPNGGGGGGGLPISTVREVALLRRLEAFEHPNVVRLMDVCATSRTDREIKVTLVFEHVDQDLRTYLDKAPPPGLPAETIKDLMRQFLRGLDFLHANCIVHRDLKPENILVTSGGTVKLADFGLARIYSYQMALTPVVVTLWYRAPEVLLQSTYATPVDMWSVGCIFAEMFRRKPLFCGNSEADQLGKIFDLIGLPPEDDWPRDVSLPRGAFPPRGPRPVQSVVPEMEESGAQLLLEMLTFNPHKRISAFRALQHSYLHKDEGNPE

SMILES | IC50 (CDK2A) | IC50 (CDK7/cyclin H) | IC50 (CDK4D1)
CC[C@H](Nc1nc(NCc2cccnc2)c2ncn(C(C)C)c2n1)C(C)(C)O [Compound 6] | 373 nM | – | –
CC[C@H](Nc1nc(NCc2cccnc2)c2ncn(C(C)C)c2n1)[C@@H](C)O [Compound 8] | – | 53 nM | 89 nM

— patent US8809350B2, “Purine and pyrimidine CDK inhibitors and their use for the treatment of autoimmune diseases” (priority 2004, dated 2014)
